This experiment deals with Adenosine receptor A1 (Homo sapiens, UniProt P30542). Kind of experiment: biochemical.

Protein sequences, listed by entry. Tags and fused reporters are not part of them.
UniProt P30542, whole entry: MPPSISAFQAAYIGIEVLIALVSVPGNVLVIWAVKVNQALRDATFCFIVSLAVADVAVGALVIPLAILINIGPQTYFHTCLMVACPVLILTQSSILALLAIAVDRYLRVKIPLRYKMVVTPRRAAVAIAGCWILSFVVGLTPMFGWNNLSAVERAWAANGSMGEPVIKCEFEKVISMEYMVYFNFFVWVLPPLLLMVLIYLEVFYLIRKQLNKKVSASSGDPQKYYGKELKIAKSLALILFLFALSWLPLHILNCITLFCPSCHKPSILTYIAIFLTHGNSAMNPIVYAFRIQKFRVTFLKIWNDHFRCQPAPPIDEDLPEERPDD

For two compounds, Ki results are on record in ChEMBL document CHEMBL1143999, “A new generation of adenosine receptor antagonists: from di- to trisubstituted aminopyrimidines” (Bioorg Med Chem, 2008).

The term Ki denotes the dissociation constant of the complex between target and ligand, obtained from inhibition or displacement. Lower therefore signals higher affinity.

`N#Cc1c(-c2ccccc2)nc(N)nc1-c1ccccc1`: affinity was put at a Ki of 3.3 nM.
`Nc1nc(-c2ccccc2)cc(-c2ccc3c(c2)OCO3)n1`: the affinity, expressed as Ki, was 34.8 nM.
